## Yeast mating assay 2: variants of the scFv Ab-95

Reference: Engelhart et al. 2022, doi:10.1038/s41597-022-01779-4. File: FLAb, binding data.

All variants were tested on one target, the spike HR2 peptide PDVDLGDISGINAS (SARS-CoV-2).

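The parent was found by panning a naive human phage display library on the peptide. AAYL52 was designed without a model: most single CDR substitutions and a random sample of double and triple ones. The scFvs were displayed on barcoded MATa yeast, the peptide on MATalpha yeast. After mating in shaken culture at 30 °C for 16 h, diploids were selected and their barcode pairs sequenced. Read counts were normalised to the haploid input and turned into Kd by a linear fit to BCL2-family pairs of known affinity, for each replicate. Mating was done three times.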

Ab-95 is the parent antibody, in scFv form: VH, then a (GGGGS)3 linker, then VL. The heavy chain is unchanged in all variants.
VH: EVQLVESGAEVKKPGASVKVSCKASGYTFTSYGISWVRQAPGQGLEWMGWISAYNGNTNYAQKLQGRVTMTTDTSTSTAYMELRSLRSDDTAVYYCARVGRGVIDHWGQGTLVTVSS
VL: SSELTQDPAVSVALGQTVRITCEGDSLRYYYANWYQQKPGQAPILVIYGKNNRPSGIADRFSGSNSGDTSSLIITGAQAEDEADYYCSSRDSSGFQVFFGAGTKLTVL

Substitutions are numbered in sequence along the VL above, starting at 1 (not Kabat).
Values are log10 of the apparent Kd in nM; lower means stronger binding.
An entry "nd" has no value in the source: the pair was not observed among the diploids in that replicate. This suggests poor binding but is not conclusive.
In this assay the parent's reference entry averaged 2.31; its copy inside this library read 2.25.
Nonspecific signal, from three strains lacking the peptide, appeared in 28% of pairings of library AAYL52, centred on 3.91 (5% of these signals below 2.90); values are not corrected for it. For each scFv, signals with the empty controls are counted beside the result, with their mean in brackets.

changes	log10 Kd, replicates	control signals
K50V/N51P/F95V	3.83 / nd / nd	3/9 (3.81)
L27T/N33Y/P54L	4.31 / nd / nd	2/9 (3.40)
S26W/S92T/S93Q	3.05 / 3.09 / nd	5/9 (4.01)
E23Y/S89R/Q96G	2.91 / 2.87 / 2.87	3/9 (3.81)
A32M/R53Q/S92T	nd / nd / nd	1/9 (4.57)
S88K/F95M	4.72 / 4.08 / nd	2/9 (3.80)
Y30F/N33V/P54A	nd / 4.67 / nd	5/9 (4.22)
S92P/G94F/F98P	2.40 / 1.93 / 2.81	3/9 (3.91)
N33K/N52M/S93Y	5.20 / nd / nd	1/9 (4.36)
A32S/S55Y/S88C	2.84 / 2.80 / 2.71	2/9 (3.71)
E23G/S55L/D91T	3.09 / 2.91 / 2.44	6/9 (3.88)
N33V/R53A/S92W	2.05 / 2.45 / 1.60	3/9 (3.55)
L27W/G49Y/F95C	3.83 / 4.08 / nd	2/9 (4.67)
Y29P/N52M/S89W	2.52 / 2.75 / 2.61	0/9
N52C/R90P/Q96G	nd / nd / nd	0/9
N52I/P54D/S92M	3.49 / 3.09 / 2.79	1/9 (4.20)
A32W/S88V/F98D	5.20 / nd / 4.48	3/9 (4.81)
Y30S/P54F/R90M	1.99 / 1.72 / 1.24	3/9 (4.24)
K50Q/R90N/S93H	nd / 2.62 / nd	2/9 (2.56)
Y31Q/G94K/F95P	nd / nd / nd	0/9
S26H/P54S/S89Q	nd / 3.46 / nd	0/9
D25S/L27M/F98L	4.23 / 4.01 / nd	2/9 (3.73)
G24T/A32W/Q96R	nd / 3.04 / nd	3/9 (3.29)
D25F/L27I/R90Q	4.20 / nd / 4.06	3/9 (4.46)
D25Y/A32R/V97L	4.20 / nd / nd	1/9 (4.62)
N33K/S88Q/S89G	3.32 / nd / nd	2/9 (4.18)
R53C/F98V	nd / 3.81 / 3.86	2/9 (4.55)
S26Q/S88V/V97T	3.57 / 2.83 / 3.55	1/9 (3.27)
R28N/G49S/P54E	3.18 / 3.58 / 4.33	3/9 (4.27)
S26C/G94K/V97T	nd / nd / nd	0/9
E23W/G24L/P54I	nd / nd / nd	2/9 (3.29)
E23A/Q96G/F98A	nd / 3.93 / nd	1/9 (3.71)
R28T/P54N/G94A	2.33 / nd / nd	1/9 (3.66)
Y30L/P54A/Q96S	2.55 / 2.51 / 2.20	5/9 (3.79)
Y30E/N33S	1.81 / 1.93 / 1.83	2/9 (3.87)
R28P/G49N/S88P	2.60 / 3.56 / 3.79	5/9 (4.04)
S26K/R28P/V97C	3.57 / 2.76 / 2.75	3/9 (3.91)
A32I/K50M/P54Q	4.19 / nd / nd	0/9
S55W/Q96T/F98D	4.11 / 3.80 / 2.98	4/9 (3.79)
G24H/D91F/V97I	2.52 / 3.12 / 3.21	1/9 (3.13)
G49A/D91I/G94W	3.54 / 3.97 / 3.38	3/9 (3.91)
E23M/N52A/P54G	2.52 / 2.30 / 2.57	2/9 (4.38)
K50A/N51A/R90D	nd / 3.24 / 3.58	3/9 (4.13)

Excerpt, the final 5 entries:

| changes | log10 Kd, replicates | control signals |
|---|---|---|
| S55W/Q96T/F98D | 4.11 / 3.80 / 2.98 | 4/9 (3.79) |
| G24H/D91F/V97I | 2.52 / 3.12 / 3.21 | 1/9 (3.13) |
| G49A/D91I/G94W | 3.54 / 3.97 / 3.38 | 3/9 (3.91) |
| E23M/N52A/P54G | 2.52 / 2.30 / 2.57 | 2/9 (4.38) |
| K50A/N51A/R90D | nd / 3.24 / 3.58 | 3/9 (4.13) |